Test results reported in ChEMBL document CHEMBL4507308 (2021).

By UniProt entry, the sequences of proteins in these tests, tags left out.
UniProt Q99720, whole entry, looked up: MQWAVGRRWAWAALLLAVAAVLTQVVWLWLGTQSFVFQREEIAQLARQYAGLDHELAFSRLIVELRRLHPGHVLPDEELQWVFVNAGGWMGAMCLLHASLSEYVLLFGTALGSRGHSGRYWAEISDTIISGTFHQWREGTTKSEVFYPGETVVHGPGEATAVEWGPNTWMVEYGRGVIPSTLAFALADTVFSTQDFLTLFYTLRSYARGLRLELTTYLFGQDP

Target: Sigma non-opioid intracellular receptor 1 (Homo sapiens, UniProt Q99720)
Test: GPCRScan assay: inhibition of Sigma 1

For Cc1cnc(-c2cc(Cl)ccc2F)cc1-n1c(=O)n(CC(N)=O)c2cnccc21 [TP-008], the Ki was 10 µM.
